# Measured values taken from PubChem BioAssay AID624037 (The Scripps Research Institute Molecular Screening Center, 2012).
# The chains behind the UniProt entries cited, without tags or fusion partners.
# UniProt P08912, whole entry, looked up: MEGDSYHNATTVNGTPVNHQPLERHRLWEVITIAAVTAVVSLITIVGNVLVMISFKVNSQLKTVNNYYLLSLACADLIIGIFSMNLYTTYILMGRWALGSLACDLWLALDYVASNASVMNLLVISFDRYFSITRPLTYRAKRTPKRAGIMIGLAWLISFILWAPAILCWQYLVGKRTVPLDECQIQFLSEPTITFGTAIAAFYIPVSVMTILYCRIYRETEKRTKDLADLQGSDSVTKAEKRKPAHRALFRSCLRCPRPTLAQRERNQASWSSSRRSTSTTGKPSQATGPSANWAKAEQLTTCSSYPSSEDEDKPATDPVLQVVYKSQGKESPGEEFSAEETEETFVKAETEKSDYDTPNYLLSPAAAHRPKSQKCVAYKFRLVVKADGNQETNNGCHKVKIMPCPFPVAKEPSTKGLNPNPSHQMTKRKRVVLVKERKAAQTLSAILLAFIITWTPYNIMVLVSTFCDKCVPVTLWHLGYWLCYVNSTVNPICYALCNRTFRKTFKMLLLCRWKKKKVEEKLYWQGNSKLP
# This is a selection; strong and weak results do not stand in their true shares. Calls of active or inactive are those of the source.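 The calls were made as follows: active = activation above the run's mean over test compounds plus 3 SD (cut at about 23% in these data); inactive = the rest.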
# Molecular target: Muscarinic acetylcholine receptor M5 (Homo sapiens) (UniProt P08912)
# Experiment: CHRM5 activators raising intracellular calcium – CHO-K1 cells, Fluo-8 calcium fluorescence, primary screen (AID 624037);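 also: signal is peak over basal fluorescence ratio across the kinetic read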
# Settings: CHO-K1 hM5 cells, at 3 µM, stronger effect = higher value, 0% DMSO wells, 100% maximal acetylcholine response
row,SMILES,activation
1,O=C(COc1ccccc1)OC1CN2CCC1CC2 (stereo not given),inactive: -11.4%
2,O=C(Nc1ccncc1[N+](=O)[O-])c1ccc([N+](=O)[O-])cc1[N+](=O)[O-],inactive: 0.79%
3,O=C(O)C(=O)c1ccc(N(CCCl)CCCl)cc1,inactive: -2.14%
4,COP1(=S)c2c(C)nn(CCC#N)c2N=C(c2ccc(F)cc2)N1C (stereo not given),inactive: -0.66%
5,COC(=O)C1(C)COP(=O)(N2CCCC2)OC1 (stereo not given),inactive: 1.8%
6,CCC(C)N(CC(C)C)C(=S)SC(NC(C)=O)C(Cl)(Cl)Cl (stereo not given),inactive: -8.04%
7,CCOC(=O)c1ccc(NC(=O)C(C)(CCl)SC)cc1 (stereo not given),inactive: 1.04%
8,O=C(OC1CN2CCC1CC2)c1cccc([N+](=O)[O-])c1 (stereo not given),inactive: -6.17%
9,CSc1ccc(Nc2c([N+](=O)[O-])cc([N+](=O)[O-])cc2[N+](=O)[O-])cc1,inactive: 4.27%
10,Cc1cc(SC(NC(=O)c2ccccc2)C(Cl)(Cl)Cl)nc(C(C)C)n1 (stereo not given),inactive: -1.66%
11,COP(=O)(OC)N1CC1c1ccccc1 (stereo not given),inactive: -1.71%
12,CC1CCNP(=O)(N(CCCl)CCCl)O1 (stereo not given),inactive: 0.94%
13,C/C=C1/CC(C)C(C)(O)C(=O)OCC2CCN3CCC(OC1=O)C23 (stereo not given),inactive: -10.2%
14,CCOC(=O)Nc1ccc([As](=O)(O)O)c(O)c1,inactive: -3.29%
15,O=C(O)C(O)c1ccc(N(CCCl)CCCl)cc1 (stereo not given),inactive: 2.27%
16,O=[N+]([O-])c1ccc(Nc2ccc(Oc3ccc([N+](=O)[O-])cc3[N+](=O)[O-])cc2)c([N+](=O)[O-])c1,inactive: -2.47%
17,O=P(Nc1ccccn1)(c1cccc2ccccc12)c1cccc2ccccc12,inactive: 3.28%
18,Cc1cc(SC(NC=O)C(Cl)(Cl)Cl)ncn1 (stereo not given),inactive: 3.41%
19,CCOC(=O)Nc1cccc([As](=O)(O)O)c1,inactive: -1.86%
20,Cc1ccc2nc3c(c(C)c2c1)CC(C(Cl)Cl)S3 (stereo not given),inactive: -4.95%
21,[N-]=[N+]=NC1CCCCC1NC(=O)c1cc([N+](=O)[O-])cc([N+](=O)[O-])c1 (stereo not given),inactive: 0.88%
22,Cc1ccc(OP(=O)(Nc2ccc([N+](=O)[O-])cn2)Oc2ccc(C)cc2)cc1,inactive: -1.73%
23,CC(Cc1ccc(O)cc1)NCC(O)c1cc(O)cc(O)c1 (stereo not given),inactive: -0.07%
24,O=[As](O)(c1ccc(O)cc1)c1ccccc1O,inactive: -1.49%
25,C[As](=O)(O)c1cccc(C(=O)O)c1,inactive: 0.66%

row,SMILES,activation
1,O=[N+]([O-])c1ccc(-c2cc([N+](=O)[O-])c(O)c([N+](=O)[O-])c2)cc1,inactive: 1.07%
2,CC(C)NC(=O)NP(=O)(Oc1ccccc1)Oc1ccccc1,inactive: -0.7%
3,O=C(OC1CN2CCC1CC2)c1cccc2[nH]cnc12 (stereo not given),inactive: -19%
4,CCN(CC)C(=S)SC(NC=O)C(Cl)(Cl)Cl (stereo not given),inactive: -4.5%
5,O=[N+]([O-])c1cc([N+](=O)[O-])c(-c2ccn[nH]2)s1,inactive: -0.98%
6,COC(=O)C1(C)COP(=O)(N2CCCCCC2)OC1 (stereo not given),inactive: 1.71%
7,CC(C)c1ccc(OP(=O)(Nc2ccccn2)Oc2ccccc2F)cc1 (stereo not given),inactive: 5%
8,ClCCSc1nnc(-c2cccnc2)o1,inactive: -1.71%
9,COc1ccc2nc(NP(=O)(c3ccccc3)c3ccccc3)sc2c1,inactive: -2.17%
10,COc1cc(I)ccc1[As](=O)(O)O,inactive: 0.49%
11,O=P1(N(CCCl)CCCl)OCCCN1CCCl (stereo not given),inactive: 4.59%
12,O=P1(N(CCCl)CCCl)Nc2ccccc2N1,inactive: -3.4%
13,O=C(OC1CN2CCC1CC2)C12CC3CC(CC(C3)C1)C2 (stereo not given),inactive: -13.8%
14,Cc1cc(=O)[nH]c(N[N+](=O)[O-])n1,inactive: 1.25%
15,Cc1c2c(nc3ccccc13)SC(C(Cl)Cl)C2 (stereo not given),inactive: -3.55%
16,COc1ccc(N/C(=N/P(=O)(N2CCOCC2)N2CCOCC2)N2CCOCC2)cc1,inactive: 0.42%
17,O=[N+]([O-])c1cc(Oc2ccc([N+](=O)[O-])cc2C(F)(F)F)cc([N+](=O)[O-])c1,inactive: 0.64%
18,Cc1cccc(OCC(=O)OC2CN3CCC2CC3)c1 (stereo not given),inactive: -10%
19,O=[As](O)(c1cccc(O)c1)c1cccc(O)c1,inactive: -0.09%
20,O=[As](O)(O)c1cccnc1,inactive: 0.39%
21,CS(=O)(=O)c1ccc(Cl)c(NC(=O)COC(=O)C(O)(c2ccccc2)c2ccccc2)c1,inactive: 4.35%
22,O=C(OC1CN2CCC1CC2)c1ccc(Cl)cc1 (stereo not given),inactive: -18.8%
23,COc1cc(C2NCCC3(OCCO3)C2(C)C)cc(OC)c1OC (stereo not given),inactive: -1.66%
24,CCOP(=O)(Nc1cccc2ccccc12)OCC,inactive: -1.98%
25,C[C@H]1C(=O)O[C@@H]2CCN3CC=C(COC(=O)[C@](C)(O)[C@]1(C)O)[C@H]23,inactive: -0.46%

row,SMILES,activation
1,CCCOP(=S)(Nc1nc(N)cc(=O)[nH]1)OCCC,inactive: -0.63%
2,Nc1cccc2c([As](=O)(O)O)cccc12,inactive: 0.19%
3,Cc1ccc(NCCc2c([N+](=O)[O-])cc([N+](=O)[O-])cc2[N+](=O)[O-])cc1,inactive: -2.15%
4,Nc1ccccc1[As](=O)(O)c1ccccc1,inactive: -3.33%
5,O=C(O)COc1ccc([As](=O)(O)O)cc1[N+](=O)[O-],inactive: 0.25%
6,CS(=O)(=O)c1cc([N+](=O)[O-])c2no[n+]([O-])c2c1,inactive: -3.25%
7,CCOP1(=S)c2c(C)nn(CCC#N)c2N=C(c2ccccc2F)N1C (stereo not given),inactive: -0.11%
8,O=P(Nc1nccs1)(Oc1ccccc1)Oc1ccccc1,inactive: -0.19%
9,O=P(Nc1nccs1)(c1ccccc1)c1nc2ccccc2s1 (stereo not given),inactive: 1.25%
10,O=[N+]([O-])c1ccc2c(c1)nnn2O,inactive: -0.03%
11,CN(C)C(=O)c1cc([N+](=O)[O-])cc2c1-c1c(cc([N+](=O)[O-])cc1[N+](=O)[O-])C2=O,inactive: 11%
12,CN(C(=O)Cc1ccc(Cl)c(Cl)c1)[C@H]1CC[C@@]2(CCCO2)C[C@@H]1N1CCCC1,inactive: -0.5%
13,N#CCCN(C(=O)COC(=O)C(O)(c1ccccc1)c1ccccc1)c1ccc(F)cc1,inactive: 4.41%
14,CCOP1(=S)c2c(C)nn(CCC#N)c2N=C(c2ccc(F)cc2)N1C (stereo not given),inactive: -0.12%
15,CN(C(=O)Cc1ccccc1)[C@@H]1CC[C@]2(CCCO2)C[C@H]1N1CCCC1,inactive: 2.53%
16,NC(=O)Nc1ccc([As](=O)(O)O)cc1,inactive: 0.06%
17,O=C(/C=C/c1ccccc1)OC1CN2CCC1CC2 (stereo not given),inactive: -19.9%
18,CCCC1OP(=O)(Nc2ccccc2)OCC1CC (stereo not given),inactive: 2.05%
19,Cc1nn(-c2ccccc2)c2c1P(=O)(N1CCOCC1)N(C)C(c1ccccc1)=N2 (stereo not given),inactive: 0.79%
20,CC1CCC(C(C)C)C(OP(=O)(Nc2ccccn2)c2ccccc2)C1 (stereo not given),inactive: 5.79%
21,Cc1ccc(C(=O)OC2CN3CCC2CC3)cc1 (stereo not given),inactive: -7.51%
22,O=[As](O)(c1cccs1)c1cccs1,inactive: -1.94%
23,Cc1ccc(OCC(=O)OC2CN3CCC2CC3)cc1 (stereo not given),inactive: -11.8%
24,O=P1(Nc2ccc(Br)cn2)COc2ccccc2OC1,inactive: 2.17%
25,NS(=O)(=O)c1cccc(NC(=O)COC(=O)C(O)(c2ccccc2)c2ccccc2)c1,inactive: -2.7%

row,SMILES,activation
1,Nc1cccc([As](=O)(O)c2ccccc2)c1,inactive: 0.85%
2,O=P1(Nc2ncccn2)COc2ccccc2OC1,inactive: -2.9%
3,Cc1ccc(S(=O)(=O)N(CCCN)CCCc2c(C)nc(N)[nH]c2=O)cc1,inactive: -3.23%
4,O=P1(N(CCCl)CCCl)NCCC(C(F)(F)F)O1 (stereo not given),inactive: 2.15%
5,Clc1n[nH]nc1-c1nn[nH][15n]1,inactive: -0.54%
6,CC(C)(C)C(=O)NC(Sc1ncccn1)C(Cl)(Cl)Cl (stereo not given),inactive: 0.72%
7,CCOP(=O)(Nc1ccc(C)cn1)OCC,inactive: -1.88%
8,CN(CCCl)Cc1cc(Cl)c(NC2=NCCN2)c(Cl)c1,inactive: 0.85%
9,O=P1(Nc2ccccn2)COc2ccccc2OC1,inactive: 3.53%
10,CCC1=CC2Cc3nc4ccc(Cl)cc4c(N)c3C(C1)C2 (stereo not given),inactive: -21.9%
11,CCOP(=O)(NC(=NC(C)c1ccccc1)NC(C)c1ccccc1)OCC (stereo not given),inactive: -3.67%
12,CC1(CBr)Cn2c(nc3ccccc3c2=O)S1 (stereo not given),inactive: -2.67%
13,CC(C)/C=N\N=C(\N)N[N+](=O)[O-],inactive: -1.86%
14,CN(C(=O)Cc1ccc(Cl)c(Cl)c1)[C@@H]1CCCC[C@H]1N1CCCC1,inactive: -1.15%
15,COc1ccccc1CNC(=O)COC(=O)C(O)(c1ccccc1)c1ccccc1,inactive: -1.05%
16,c1nnnn1CCn1cnnn1,inactive: -1.44%
17,CC(C)C(=O)NC(Sc1ccccc1)C(Cl)(Cl)Cl (stereo not given),inactive: -7.87%
18,O=P(Nc1nccs1)(c1ccccc1)c1ccccc1,inactive: -0.46%
19,O=P(Nc1nc2ccccc2s1)(c1ccccc1)c1ccccc1,inactive: -1.84%
20,C[C@H]1OP(=O)(Oc2ccccc2)[C@H](O)[C@H](O)[C@H]1N=[N+]=[N-] (stereo not given in full),inactive: 4.43%
21,COc1ccc(N)c([N+](=O)[O-])c1[N+](=O)[O-],inactive: 1.89%
22,Nc1ccc(CCCCOc2ccccc2)cc1,inactive: 7.51%
23,O=P(Nc1ccccn1)(c1ccc(Br)cc1)c1ccc(Br)cc1,inactive: -0.83%
24,C(Cc1nn[nH]n1)Cc1nn[nH]n1,inactive: 1.4%
25,Nc1ccc([As](=O)(O)c2ccc([N+](=O)[O-])cc2)cc1,inactive: -1.23%
